Measurements taken from PubChem BioAssay AID2553 (Johns Hopkins Ion Channel Center, 2010).
The list shows a part of the results, in another mix than the full data. Some tests of the compounds listed are not included; inactive here does not mean inactive elsewhere. Calls of active or inactive are those of the source.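 Rule for the calls: active = B-score under library mean minus 3 SD, initial fluorescence not abnormally high, positive integrated signal ratio; inactive = the rest.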

Chains of the proteins cited; added tags and fusions are not shown.
UniProt Q61143, whole entry: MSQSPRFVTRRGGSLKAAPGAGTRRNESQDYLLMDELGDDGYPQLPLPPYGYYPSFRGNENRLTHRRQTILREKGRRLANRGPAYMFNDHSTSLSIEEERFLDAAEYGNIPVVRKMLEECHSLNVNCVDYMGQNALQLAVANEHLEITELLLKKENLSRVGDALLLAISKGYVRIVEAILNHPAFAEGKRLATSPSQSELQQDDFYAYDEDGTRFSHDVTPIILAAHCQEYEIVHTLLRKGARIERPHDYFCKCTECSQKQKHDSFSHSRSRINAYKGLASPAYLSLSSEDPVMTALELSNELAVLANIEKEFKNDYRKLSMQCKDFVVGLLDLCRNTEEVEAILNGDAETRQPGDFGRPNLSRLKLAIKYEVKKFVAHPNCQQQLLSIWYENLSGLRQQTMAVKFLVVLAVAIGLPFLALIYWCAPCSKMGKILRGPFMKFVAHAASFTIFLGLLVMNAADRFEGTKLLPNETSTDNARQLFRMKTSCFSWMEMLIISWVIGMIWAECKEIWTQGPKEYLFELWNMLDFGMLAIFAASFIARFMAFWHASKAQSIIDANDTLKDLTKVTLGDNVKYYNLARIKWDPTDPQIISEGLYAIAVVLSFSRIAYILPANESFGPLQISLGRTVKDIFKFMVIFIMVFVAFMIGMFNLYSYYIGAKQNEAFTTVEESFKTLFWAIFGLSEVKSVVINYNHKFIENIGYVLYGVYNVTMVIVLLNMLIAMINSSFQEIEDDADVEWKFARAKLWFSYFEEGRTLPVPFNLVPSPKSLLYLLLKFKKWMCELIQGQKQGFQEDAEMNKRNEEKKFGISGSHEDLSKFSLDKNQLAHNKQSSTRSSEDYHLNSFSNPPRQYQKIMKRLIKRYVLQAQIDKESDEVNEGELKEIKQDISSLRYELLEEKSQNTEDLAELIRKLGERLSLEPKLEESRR

These compounds were tested against Short transient receptor potential channel 6 (Mus musculus) (UniProt Q61143) (assay: mouse TRPC6 channel inhibitors, primary screen, cell-based, HEK293, membrane potential dye (AID 2553;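 for B-score: B-score derived from integrated fluorescence ratio over the kinetic read; more negative B-score means stronger inhibition of depolarization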)). Settings: ACh-evoked depolarization, at 10 µM; stronger effect = lower value.
With `C=CCN1CCN(CCOC(=O)C(O)(c2ccccc2)c2ccccc2)CC1` the outcome was “inactive”.
For `O=C(NCC1(N2CCCCC2)CCCCC1)c1cc(F)c(F)cc1Cl`, the outcome was “inactive”.
For `Cc1cc(C(=O)NCC2(N3CCCCC3)CCCCC2)ccc1[N+](=O)[O-]`, the outcome was “inactive”.
`CCN1CCCC(OC(=O)C2(O)c3ccccc3C=Cc3ccccc32)C1` (centres undefined) was tested, and the outcome was “inactive”.
In the case of `O=C(NCC1(N2CCCCC2)CCCCC1)c1cccc(Br)c1`, the outcome is reported as “inactive”.
`COc1ccc(C(=O)NCC2(N(C)C)CCCCC2)cc1` was tested, and the outcome was “inactive”.
For `Cc1ccccc1C(=O)NCC1(N2CCCCC2)CCCCC1`, the outcome was “inactive”.
With `CN(C)C1CCCC1OC(=O)C(O)(c1ccccc1)c1ccccc1` (centres undefined) the outcome was “inactive”.
With `CN(C)c1ccc(C(=O)NCC2(N(C)C)CCCCC2)cc1` the outcome was “inactive”.
With `CC(C)N1C(=O)CC2(CCN(CCOC(=O)C(O)(c3ccccc3)c3ccccc3)CC2)C1=O` the outcome was “inactive”.
With `CCN(CC)CC(C)C(C)OC(=O)C(O)(c1ccccc1)c1ccccc1` (centres undefined) the B-score was active: -5.03.
In the case of `COc1cc(SC)ccc1C(=O)NCC1(N(C)C)CCCCC1`, the outcome is reported as “inactive”.
`Cc1ccc(C(=O)NCC2(N3CCCCC3)CCCCC2)cc1` was tested, and the outcome was “inactive”.
In the case of `O=C(NCC1(N2CCCCC2)CCCCC1)c1cc([N+](=O)[O-])ccc1Cl`, the outcome is reported as “inactive”.
In the case of `CN1[C@@H]2CC[C@H]1CC(OC(=O)C(O)(c1ccccc1)c1ccccc1)C2` (some centres undefined), the B-score is reported as active: -5.3.
`COc1ccc(Br)c(C(=O)NCC2(N3CCCCC3)CCCCC2)c1` was tested, and the outcome was “inactive”.
In the case of `CN(C)c1cccc(C(=O)NCC2(N(C)C)CCCCC2)c1`, the outcome is reported as “inactive”.
For `CC(C)Oc1ccc(C(=O)NCC2(N(C)C)CCCCC2)cc1`, the outcome was “inactive”.
For `O=C(OC1CN2CCC1CC2)C(CO)(c1ccccc1)c1ccccc1` (centres undefined), the B-score was active: -7.87.
In the case of `COc1cccc(C(=O)NCC2(N3CCCCC3)CCCCC2)c1`, the outcome is reported as “inactive”.
In the case of `COc1ccc(Cl)cc1C(=O)NCC1(N(C)C)CCCCC1`, the outcome is reported as “inactive”.
With `O=C(NCC1(N2CCCCC2)CCCCC1)c1cccc(Cl)c1` the outcome was “inactive”.
With `CN(C)C1(CNC(=O)c2ccc(Br)cc2)CCCCC1` the outcome was “inactive”.
In the case of `COc1cc(C(=O)NCC2(N(C)C)CCCCC2)c([N+](=O)[O-])cc1OC`, the outcome is reported as “inactive”.
